2 molecules from publication PMC8365601, “Terphenyl-Based Small-Molecule Inhibitors of Programmed Cell Death-1/Programmed Death-Ligand 1 Protein–Protein Interaction” (Journal of Medicinal Chemistry, 2021) can be followed below.

Read-outs that look alike come from different tables or passages of the source.

For this experiment, the target named is PD-1/PD-L1 complex (Homo sapiens, UniProt Q9NZQ7). Description: HTRF assay of PD-1/PD-L1 complex dissociation (CisBio).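 On all read-outs here: human PD-L1 at 5 nM with human PD-1 at 50 nM, TR-FRET signal read after 2 h at room temperature, background removed via negative control and scaled to positive control.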 As to conditions: for remaining activity at 5 µM: 2 h.

Regarding `Cc1c(-c2ccc(CO)cc2)cccc1-c1ccc2c(c1)OCCO2` [4a, (3′-(Benzo-1,4-dioxan-6-yl)-2′-methyl-[1,1′-biphenyl]-4-yl)methanol], the remaining activity at 5 µM (read-out: % of undissociated complex at 5 μM) came out at 42% and the remaining activity at 5 µM (read-out: HTRF % of the undissociated complex at 5 μM) amounted to 42%.
As to `Cc1c(COc2cc(OCc3cccc(C#N)c3)c(CN3C[C@H](O)C[C@@H]3C(=O)O)cc2Cl)cccc1-c1ccc2c(c1)OCCO2` [BMS-1166, reference compound], the “% of undissociated complex at 5 nM” value (5 nM, Table S1) is 53%.
